Legend:
RRRRRRRRRR (IK00100) = target: T1, RRRRRRRRRR (IK00100)
T1 chain: RRRRRRRRRR

RRRRRRRR (IK00800) = target: T2, RRRRRRRR (IK00800)
T2 chain: RRRRRRRR

B1: Lck(h) (lymphocyte-specific protein tyrosine kinase) (protein)
chain: MGCGCSSHPEDDWMENIDVCENCHYPIVPLDGKGTLLIRNGSEVRDPLVTYEGSNPPASPLQDNLVIALHSYEPSHDGDLGFEKGEQLRILEQSGEWWKAQSLTTGQEGFIPFNFVAKANSLEPEPWFFKNLSRKDAERQLLAPGNTHGSFLIRESESTAGSFSLSVRDFDQNQGEVVKHYKIRNLDNGGFYISPRITFPGLHELVRHYTNASDGLCTRLSRPCQTQKPQKPWWEDEWEVPRETLKLVERLGAGQFGEVWMGYYNGHTKVAVKSLKQGSMSPDAFLAEANLMKQLQHQRLVRLYAVVTQEPIYIITEYMENGSLVDFLKTPSGIKLTINKLLDMAAQIAEGMAFIEERNYIHRDLRAANILVSDTLSCKIADFGLARLIEDNEYTAREGAKFPIKWTAPEAINYGTFTIKSDVWSFGILLTEIVTHGRIPYPGMTNPEVIQNLERGYRMVRPDNCPEELYQLMRLCWKERPEDRPTFDYLRSVLEDFFTATEGQYQPQP
phosphorylation of Lck at Y394, western blot with anti-pY394, peptide 1 and 10 µM (RRRRRRRRRR (IK00100)): a significant increase in the level of phosphorylation detected at amino acid position Y394 of Lck. Again, the level of phosphorylation increased with increasing test peptide concentration | tyrosine phosphorylation of Lck, western blot with 4G10, peptide 1 and 10 µM (RRRRRRRRRR (IK00100)): a significant increase in the level of phosphorylation observed on Lck. Moreover, the level of phosphorylation increased with increasing test peptide concentration | phosphorylation of Lck at Y394, western blot with anti-pY394, peptide 1 and 10 µM (RRRRRRRR (IK00800)): a significant increase in the level of phosphorylation detected at amino acid position Y394 of Lck. Again, the level of phosphorylation increased with increasing test peptide concentration | tyrosine phosphorylation of Lck, western blot with 4G10, peptide 1 and 10 µM (RRRRRRRR (IK00800)): a significant increase in the level of phosphorylation observed on Lck. Moreover, the level of phosphorylation increased with increasing test peptide concentration

Source: patent US20260103488
